Data published in PMC8973347, “Discovery of novel sulphonamide hybrids that inhibit LSD1 against bladder cancer cells” (Journal of Enzyme Inhibition and Medicinal Chemistry, 2022).

Sequences of proteins named here, by UniProt entry; tags and fusion partners are left off.
UniProt P27338, whole entry, species assumed: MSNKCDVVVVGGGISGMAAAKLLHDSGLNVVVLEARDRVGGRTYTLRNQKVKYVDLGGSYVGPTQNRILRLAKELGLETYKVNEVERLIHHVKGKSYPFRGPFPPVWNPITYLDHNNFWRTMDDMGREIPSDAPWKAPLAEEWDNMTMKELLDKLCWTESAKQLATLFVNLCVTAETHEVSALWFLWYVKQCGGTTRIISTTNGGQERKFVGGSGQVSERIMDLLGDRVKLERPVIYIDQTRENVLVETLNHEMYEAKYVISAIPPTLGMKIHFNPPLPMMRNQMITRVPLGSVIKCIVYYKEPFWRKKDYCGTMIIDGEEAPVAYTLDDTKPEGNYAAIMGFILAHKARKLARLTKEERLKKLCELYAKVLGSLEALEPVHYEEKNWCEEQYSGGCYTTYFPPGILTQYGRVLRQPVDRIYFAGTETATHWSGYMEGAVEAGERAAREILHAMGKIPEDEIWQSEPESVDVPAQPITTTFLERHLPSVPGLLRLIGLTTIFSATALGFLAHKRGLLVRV

Molecular target: T1, MAO-B (Homo sapiens, UniProt P27338)
T1 construct: purchased Promega
Assay: MAO-A/B biochemical kit, MAO-B

IC50: > 120 µM
Structure (SMILES): N[C@H]1CC[C@H](N[C@@H]2C[C@H]2c2ccccc2)CC1 [ORY-1001, reference compound]
